From patent US6322962A, “Sterol-regulated Site-1 protease and assays of modulators thereof” (Board of Regents, The University of Texas System, priority 1999, dated 2001) come the findings set out here.

The test concerns the target S1P(983)-C, purified secreted enzyme (hamster).

On to aprotinin (from UniProt P00974), for which the AMC liberated from Ac-VFRSLK-MCA by S1P(983)-C, % control, at 0.0003 mM aprotinin is 89 % control.
